From publication PMC7179958, “Prediction of Clinical Transporter‐Mediated Drug–Drug Interactions via Comeasurement of Pitavastatin and Eltrombopag in Human Hepatocyte Models” (CPT: Pharmacometrics & Systems Pharmacology, 2020)

Tested on: human hepatocytes
Experiment: Uptake of pitavastatin and eltrombopag in cryopreserved human hepatocytes (oil spin method), comeasurement, micro‐rate constant mechanistic model
Assay type: in vitro ADME
Experimental: Human hepatocytes were obtained from BioIVT (Brussels, Belgium; lot number: LYB; 10 donor LiverPool (8 Caucasians, 1 African American, and 1 Hispanic) and thawed according to supplier guidelines in Leibovitz L15 medium. Hepatocytes were kept on ice prior to use and were used within 3 hours of defrosting.
Hepatocytes (viability 84–87%) were preincubated in Leibovitz L15 medium at 1.5 × 10^6 cells for 15 minutes at 37 °C with either 0.1% DMSO or 45 nmol/mL eltrombopag. Incubations were started by the addition of pitavastatin (0.3–100 nmol/mL, 1 × 10^6 cells, 0.35% DMSO, 30 nmol/mL eltrombopag final), and 100 µL samples taken at 0.25–30 minutes. Cells were separated using an oil spin method similar to the literature. ^11 , ^17 After separation, the tubes were frozen on dry ice and the bottom layer was cut off. Pitavastatin and eltrombopag were extracted in a stop solution prior to ultra‐performance liquid chromatography–high‐resolution mass spectrometry analysis (see the Supplemental Material for full experimental and sample extraction methods).
The bottom layer concentrations of pitavastatin and eltrombopag were converted to a cellular concentration using a cellular volume (V cell) of 3 µL/1 × 10^6 human hepatocytes: ^18 (1) cellnmol/mL=Bottom layer×15.3μL/Vcell/100 where V cell /1 × 10^5 cells was 0.3 µL, and the volume of the bottom layer of cesium chloride was 15 µL. A dilution factor of 100 was used to scale from pmol/mL/1 × 10^5 cells to nmol/mL/1 × 10^6 cells.
The final chosen mechanistic model (model 1 with the comeasurement of pitavastatin and eltrombopag; Table 1 ) was based on the outcome of the structural identifiability analysis and goodness‐of‐fit statistics (Bayesian information criterion, and the weighted Bayesian information criterion, ^21 and the sum of the relative mean square root error (percentage RMSRE); see Supplemental Material ). Model 1 was described using a set of ODEs representing the following: the amount of pitavastatin (X = substrate (S) or pitavastatin (P)) and eltrombopag (X = inhibitor (I) or eltrombopag (E)) in the medium (X 1), the amount bound to transporter (X 2), and the intracellular amount (X 3). Passive rate constants for movement into and out of the cell (k f.X and k bX, respectively) as well as uptake transporter‐mediated rate constants for association to the transporter (k aX) and dissociation (k dX) and translocation (k tX) from the transporter into the medium and cell, respectively. Metabolism of pitavastatin in the cell was through an elimination rate constant (k e). The sets of ODEs for all the models (models 1–4; Table 1 ) tested for structural identifiability and used for parameter estimation are included in the Supplemental Material .
Parameter estimation was conducted within Monolix 2018 R2 (Lixoft, Antony, France) for each concentration and experiment as an individual data set, where to ensure positivity, a log‐normal distribution was assumed for each parameter, with a proportional residual error model for the observations. Because of the large number of parameters to be estimated in the combined pitavastatin and eltrombopag mechanistic model, the initial estimates for pitavastatin and eltrombopag each were obtained for the micro‐rate constant models (no macro‐rate constant estimates could be obtained for eltrombopag alone for transporter‐mediated uptake).
Hepatocyte Incubations. 0.4 mL of hepatocytes was diluted 1:1 with Leibovitz either containing DMSO blank (0.1 % for pitavastatin or 0.25 % for eltrombopag alone) or eltrombopag at 90 nmol/mL and pre-incubated at 1.5x10^6 cells/mL for 15 min at 37 °C in 7 mL glass scintillation vials (PerkinElmer, Vasby, Sweden) in a shaking water bath (Grant Instruments, Cambridge, UK). Pitavastatin was dissolved and serially diluted in DMSO to give 0.12, 0.4, 1.2, 4, 12 and 40 µmol/mL, and then diluted 400-fold into 37 °C Leibovitz L15 medium. […]

O=C(O)C[C@H](O)C[C@H](O)/C=C/c1c(C2CC2)nc2ccccc2c1-c1ccc(F)cc1 [pitavastatin, pitavastatin calcium]
DV (pitavastatin uptake into hepatocytes) (ID 1, AMT 0.3, TIME 15.33, DVID 1): 0.44
DV (pitavastatin uptake into hepatocytes) (ID 1, AMT 0.3, TIME 15.5, DVID 1): 0.81
DV (pitavastatin uptake into hepatocytes) (ID 1, AMT 0.3, TIME 16, DVID 1): 1.13
DV (pitavastatin uptake into hepatocytes) (ID 1, AMT 0.3, TIME 17, DVID 1): 2.05
DV (pitavastatin uptake into hepatocytes) (ID 1, AMT 0.3, TIME 20, DVID 1): 3.37
DV (pitavastatin uptake into hepatocytes) (ID 1, AMT 0.3, TIME 25, DVID 1): 3.44
DV (pitavastatin uptake into hepatocytes) (ID 1, AMT 0.3, TIME 45, DVID 1): 3.08
DV (pitavastatin uptake into hepatocytes) (ID 2, AMT 0.3, TIME 15.25, DVID 1): 1
DV (pitavastatin uptake into hepatocytes) (ID 2, AMT 0.3, TIME 15.5, DVID 1): 1.65
DV (pitavastatin uptake into hepatocytes) (ID 2, AMT 0.3, TIME 16, DVID 1): 2.77
DV (pitavastatin uptake into hepatocytes) (ID 2, AMT 0.3, TIME 17, DVID 1): 3.74
DV (pitavastatin uptake into hepatocytes) (ID 2, AMT 0.3, TIME 20, DVID 1): 6.25
DV (pitavastatin uptake into hepatocytes) (ID 2, AMT 0.3, TIME 25, DVID 1): 6.32
DV (pitavastatin uptake into hepatocytes) (ID 2, AMT 0.3, TIME 45, DVID 1): 5.75
DV (pitavastatin uptake into hepatocytes) (ID 3, AMT 0.3, TIME 15.25, DVID 1): 0.64
DV (pitavastatin uptake into hepatocytes) (ID 3, AMT 0.3, TIME 15.5, DVID 1): 1.12
DV (pitavastatin uptake into hepatocytes) (ID 3, AMT 0.3, TIME 16, DVID 1): 2.02
DV (pitavastatin uptake into hepatocytes) (ID 3, AMT 0.3, TIME 17, DVID 1): 2.84
DV (pitavastatin uptake into hepatocytes) (ID 3, AMT 0.3, TIME 20, DVID 1): 3.66
DV (pitavastatin uptake into hepatocytes) (ID 3, AMT 0.3, TIME 25, DVID 1): 3.52
DV (pitavastatin uptake into hepatocytes) (ID 3, AMT 0.3, TIME 45, DVID 1): 2.87
DV (pitavastatin uptake into hepatocytes) (ID 4, AMT 1, TIME 15.25, DVID 1): 1.64
DV (pitavastatin uptake into hepatocytes) (ID 4, AMT 1, TIME 15.5, DVID 1): 2.04
DV (pitavastatin uptake into hepatocytes) (ID 4, AMT 1, TIME 16, DVID 1): 3
DV (pitavastatin uptake into hepatocytes) (ID 4, AMT 1, TIME 17, DVID 1): 5.53
DV (pitavastatin uptake into hepatocytes) (ID 4, AMT 1, TIME 20, DVID 1): 8.32
DV (pitavastatin uptake into hepatocytes) (ID 4, AMT 1, TIME 25, DVID 1): 5.65
DV (pitavastatin uptake into hepatocytes) (ID 4, AMT 1, TIME 45, DVID 1): 9.06
DV (pitavastatin uptake into hepatocytes) (ID 5, AMT 1, TIME 15.25, DVID 1): 3.21
DV (pitavastatin uptake into hepatocytes) (ID 5, AMT 1, TIME 15.5, DVID 1): 4.54
DV (pitavastatin uptake into hepatocytes) (ID 5, AMT 1, TIME 16, DVID 1): 7.36
DV (pitavastatin uptake into hepatocytes) (ID 5, AMT 1, TIME 17, DVID 1): 11.12
DV (pitavastatin uptake into hepatocytes) (ID 5, AMT 1, TIME 20, DVID 1): 17.63
DV (pitavastatin uptake into hepatocytes) (ID 5, AMT 1, TIME 25, DVID 1): 18.93
DV (pitavastatin uptake into hepatocytes) (ID 5, AMT 1, TIME 45, DVID 1): 14.63
DV (pitavastatin uptake into hepatocytes) (ID 6, AMT 1, TIME 15.25, DVID 1): 2.1
DV (pitavastatin uptake into hepatocytes) (ID 6, AMT 1, TIME 15.5, DVID 1): 2.85
DV (pitavastatin uptake into hepatocytes) (ID 6, AMT 1, TIME 16, DVID 1): 5.61
DV (pitavastatin uptake into hepatocytes) (ID 6, AMT 1, TIME 17, DVID 1): 8.39
DV (pitavastatin uptake into hepatocytes) (ID 6, AMT 1, TIME 20, DVID 1): 13.16
DV (pitavastatin uptake into hepatocytes) (ID 6, AMT 1, TIME 25, DVID 1): 10.79
DV (pitavastatin uptake into hepatocytes) (ID 6, AMT 1, TIME 45, DVID 1): 8.88
DV (pitavastatin uptake into hepatocytes) (ID 7, AMT 3, TIME 15.25, DVID 1): 3.44
DV (pitavastatin uptake into hepatocytes) (ID 7, AMT 3, TIME 15.5, DVID 1): 5.29
DV (pitavastatin uptake into hepatocytes) (ID 7, AMT 3, TIME 16, DVID 1): 6.84
DV (pitavastatin uptake into hepatocytes) (ID 7, AMT 3, TIME 17, DVID 1): 12.79
DV (pitavastatin uptake into hepatocytes) (ID 7, AMT 3, TIME 20, DVID 1): 20.91
DV (pitavastatin uptake into hepatocytes) (ID 7, AMT 3, TIME 25, DVID 1): 23.83
DV (pitavastatin uptake into hepatocytes) (ID 7, AMT 3, TIME 45, DVID 1): 16.69
DV (pitavastatin uptake into hepatocytes) (ID 8, AMT 3, TIME 15.25, DVID 1): 7.28
DV (pitavastatin uptake into hepatocytes) (ID 8, AMT 3, TIME 15.5, DVID 1): 11.1
DV (pitavastatin uptake into hepatocytes) (ID 8, AMT 3, TIME 16, DVID 1): 18.96
DV (pitavastatin uptake into hepatocytes) (ID 8, AMT 3, TIME 17, DVID 1): 26.06
DV (pitavastatin uptake into hepatocytes) (ID 8, AMT 3, TIME 20, DVID 1): 34.93
DV (pitavastatin uptake into hepatocytes) (ID 8, AMT 3, TIME 25, DVID 1): 41.51
DV (pitavastatin uptake into hepatocytes) (ID 8, AMT 3, TIME 45, DVID 1): 37.21
DV (pitavastatin uptake into hepatocytes) (ID 9, AMT 3, TIME 15.25, DVID 1): 4.57
DV (pitavastatin uptake into hepatocytes) (ID 9, AMT 3, TIME 15.5, DVID 1): 6.22
DV (pitavastatin uptake into hepatocytes) (ID 9, AMT 3, TIME 16, DVID 1): 10.98
DV (pitavastatin uptake into hepatocytes) (ID 9, AMT 3, TIME 17, DVID 1): 14.51
DV (pitavastatin uptake into hepatocytes) (ID 9, AMT 3, TIME 20, DVID 1): 23.79
DV (pitavastatin uptake into hepatocytes) (ID 9, AMT 3, TIME 25, DVID 1): 27.45
DV (pitavastatin uptake into hepatocytes) (ID 9, AMT 3, TIME 45, DVID 1): 24.05
DV (pitavastatin uptake into hepatocytes) (ID 10, AMT 10, TIME 15.25, DVID 1): 10.28
DV (pitavastatin uptake into hepatocytes) (ID 10, AMT 10, TIME 15.5, DVID 1): 13.48
DV (pitavastatin uptake into hepatocytes) (ID 10, AMT 10, TIME 16, DVID 1): 21.07
DV (pitavastatin uptake into hepatocytes) (ID 10, AMT 10, TIME 17, DVID 1): 40.16
DV (pitavastatin uptake into hepatocytes) (ID 10, AMT 10, TIME 20, DVID 1): 41.64
DV (pitavastatin uptake into hepatocytes) (ID 10, AMT 10, TIME 25, DVID 1): 48.12
DV (pitavastatin uptake into hepatocytes) (ID 10, AMT 10, TIME 45, DVID 1): 51.06
DV (pitavastatin uptake into hepatocytes) (ID 11, AMT 10, TIME 15.25, DVID 1): 23.81
DV (pitavastatin uptake into hepatocytes) (ID 11, AMT 10, TIME 15.5, DVID 1): 31.84
DV (pitavastatin uptake into hepatocytes) (ID 11, AMT 10, TIME 16, DVID 1): 50.69
DV (pitavastatin uptake into hepatocytes) (ID 11, AMT 10, TIME 17, DVID 1): 69.05
DV (pitavastatin uptake into hepatocytes) (ID 11, AMT 10, TIME 20, DVID 1): 86.82
